## Antibody variant affinities, Ab-14 heavy chain, assay B

Reference: Li et al. 2023, doi:10.1038/s41467-023-39022-2. File: FLAb, binding data.

Binding partner: SARS-CoV-2 spike HR2 peptide, sequence PDVDLGDISGINAS.

The variants keep the light chain, the linker and the frameworks of Ab-14 (scFv order VH, the linker GGGGSGGGGSGGGGS, VL).
VH: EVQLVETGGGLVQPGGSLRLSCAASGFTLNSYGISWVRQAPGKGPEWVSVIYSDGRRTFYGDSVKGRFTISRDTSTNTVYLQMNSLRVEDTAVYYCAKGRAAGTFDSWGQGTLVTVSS
VL: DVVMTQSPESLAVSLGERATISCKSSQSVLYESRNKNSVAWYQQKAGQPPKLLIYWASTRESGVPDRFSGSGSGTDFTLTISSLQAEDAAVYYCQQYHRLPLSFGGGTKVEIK

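Phage display of a naive human antibody library on the peptide gave the parent. The variants were designed computationally from a first round of random CDR variants and then made and measured. Their group label is 14H_En_HC (En: ensemble of fine-tuned language models; HC: hill climbing; a sequence that several methods proposed may carry one label only). The scFvs were displayed on barcoded MATa yeast, the peptide on MATalpha yeast. Binding brings cells together so that they mate, and sequencing counts the barcode pairs among the diploids. Scores were corrected for input abundance and mapped to Kd with protein pairs of known affinity run in the same pool. The assay was run in six technical replicates.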

Variants are written as CDR1, CDR2 and CDR3 of the heavy chain (limits as in the source). Parent: GFTLNSYGIS, VIYSDGRRTFYGDSVK, GRAAGTFDS. Values are log10 of the apparent Kd in nM; lower means stronger binding. The mean shown is taken over the replicates in which the pair was detected. A pair that was not seen in that replicate is written "n.d."; this usually means weak binding, but a binder can also be missed.

CDR-H1,CDR-H2,CDR-H3,"log10 Kd, replicates",mean log10 Kd (nM),signal with controls
GFDLNEYGIS,VIYADGQRTAYADSVK,GKSAGTFDS,-0.06 / -0.15 / -0.39 / -0.38 / -0.52 / 0.33,-0.19,0 of 18
GFDLNEYGIS,VIYADGMRTAYSDSVK,GEVAGTFVS,1.00 / -0.45 / 0.23 / -0.44 / 0.26 / -0.12,0.08,0 of 18
GFDLDEYGIS,VIYADGRRTFYADSVK,GETAGTFFS,0.67 / 0.31 / -0.11 / 0.31 / 0.47 / 0.70,0.39,0 of 18
GFDLNEYGIS,VIYADGRRTFYVDSVK,GEQAGTFDV,0.33 / -0.25 / -0.25 / -0.19 / -0.08 / 0.17,-0.04,0 of 18
GFDLNEYGIS,VIYADGKRTFYSDSVK,GNQGGTFDV,1.40 / 1.27 / -0.29 / 1.04 / 0.10 / -0.29,0.54,0 of 18
GFDLNEYGIS,VIYADGRRTFYADSVK,GEVAGTFVN,0.17 / -0.55 / -0.32 / -0.16 / -0.62 / -0.24,-0.29,0 of 18
GFDLNEYGIS,VIYADGRRTFYTDSVK,GEVAGTFDE,-0.26 / -0.95 / -1.38 / -1.13 / -0.18 / -0.21,-0.69,0 of 18
GFDLNEYGIS,VIYADGQRTFYSDSVK,GQTAGTFDE,-0.18 / -0.40 / -0.56 / -0.60 / -0.80 / -0.49,-0.50,1 of 18 (1.47)
GFDLNEYGIS,VIYADGRRTFYADSVK,GETAGTFDS,-0.82 / -0.79 / -0.81 / -0.78 / -0.79 / -0.29,-0.71,0 of 18
GFNLNEYGIS,VIYADGRRTFYTDSVK,GTNAGTFDM,0.37 / -0.69 / -0.51 / -0.85 / 1.04 / 0.04,-0.10,0 of 18
GFDLNEYGIS,VIYADGVRTFYADDVK,GEVAGTFDL,-0.63 / -0.33 / -0.32 / -0.59 / -0.62 / -0.30,-0.46,0 of 18
GFDLNEYGIS,VIYADGRRTAYIDSVK,GEVAGTFDQ,-0.28 / -0.54 / -0.59 / -0.50 / -0.39 / -0.22,-0.42,1 of 18 (2.34)
GFDLNEYGIS,VIYADGRRTFYTDSVK,GEQAGTFDQ,0.16 / 0.07 / -0.21 / -0.19 / 0.09 / 0.15,0.01,0 of 18
GFDLNEYGIS,VIYADGRRTFYADSVK,GKIAGTFDV,-0.31 / -0.67 / -0.45 / -0.68 / -0.96 / -0.53,-0.60,1 of 18 (1.73)
GFDLNEYGIS,VIYADGRRTFYADSVK,GQVAGTFSV,-0.65 / -0.56 / -0.51 / -0.75 / -0.62 / -0.29,-0.56,0 of 18
GFDLNEYGIS,VIYADGRRTFYADSVK,GEQAGTFDF,-0.39 / -1.03 / -0.58 / -1.12 / -1.03 / -0.83,-0.83,1 of 18 (3.72)
GFDLNEYGIS,VIYADGRRTAYIDSVK,GHVAGTFDS,-0.40 / -0.65 / -0.73 / -0.81 / -0.39 / -0.38,-0.56,0 of 18
GFDLNEYGIS,VIYADGRRTFYADNVK,GEVAGTFDL,-0.23 / -0.67 / -0.44 / -0.43 / -0.83 / -0.76,-0.56,0 of 18
GFDLDEYGIS,VIYADGRRTFYQDSVK,GTNAGTFDQ,0.10 / -0.16 / -0.21 / -0.31 / -0.20 / -0.12,-0.15,1 of 18 (2.93)
GFDLNEYGIS,VIYADGRRTAYSDSVK,GNVAGTFDK,-0.24 / -0.32 / -0.50 / -0.91 / -0.27 / -0.50,-0.46,0 of 18
GFDLNEYGIS,VIYADGRRTAYSDSVK,GEAAGTFDI,1.40 / 1.18 / 1.09 / 0.77 / 0.76 / 0.96,1.03,1 of 18 (2.17)
GFDLNEYGIS,VIYADGRRTFYADSVK,GQAAGTFNL,-0.13 / -0.34 / -0.26 / -0.49 / -0.40 / -0.09,-0.29,0 of 18
GFNLDEYGIS,VIYADGKRTAYADSVK,GEVAGTFDT,1.30 / -0.11 / 0.50 / 0.75 / 0.01 / 0.66,0.52,0 of 18
GFDINEYGIS,VIYADGRRTAYADSVK,GEAAGTFDS,-0.09 / -0.17 / -0.38 / -0.37 / -0.35 / -0.17,-0.25,0 of 18
GFDLDEYGIS,VIYADGRRTFYQDSVK,GQNAGTFDM,-0.60 / -0.55 / -0.88 / -0.47 / -0.37 / -0.29,-0.53,0 of 18
GFDLNEYGIS,VIYADGRRTFYSDSVK,GQTGGTFDL,1.80 / 0.99 / 0.41 / 0.88 / 2.54 / 1.05,1.28,0 of 18
GFDLNEYGIS,VIYADGRRTFYADSVK,GEAAGSFDQ,0.60 / 0.18 / 0.22 / 0.23 / 0.79 / 0.52,0.42,0 of 18
GFDLNEYGIS,VIYADGQRTAYADSVK,GKQAGTFDS,-0.09 / -0.48 / -0.70 / -1.06 / -0.63 / -0.22,-0.53,0 of 18
GFDLNEYGIS,VIYADGMRTFYADSVK,GEAAGSFDQ,n.d. / -0.64 / n.d. / -0.63 / n.d. / -0.63,-0.63,0 of 18
GFDLNEYGIS,VIYADGRRTFYVDSVK,GVNAGTFDV,-0.80 / -0.74 / -1.00 / -0.90 / -0.89 / -0.53,-0.81,0 of 18
GFDLNEYGIS,VIYADGRRSYYADSVK,GQLAGTFDS,-0.44 / -0.70 / -0.59 / -0.59 / -0.35 / -0.35,-0.50,0 of 18
GFDLNEYGIS,VIYADGRRTFYSDSVK,GHVAGTFIQ,-0.37 / -0.25 / -0.37 / -0.58 / -0.37 / 0.07,-0.31,0 of 18
GFNLEDYGIS,VIYADGRRTFYADSVK,GEVAGTFDV,0.77 / 0.51 / 0.74 / 0.67 / n.d. / n.d.,0.67,0 of 18
GFDLNEYGIS,VIYADGLRTSYSDSVK,GQLAGTFDQ,-0.43 / -0.48 / -0.79 / 0.05 / -1.13 / -0.70,-0.58,0 of 18
GFDLNEYGIS,VIYADGMRTFYDDSVK,GQLAGTFDM,-0.36 / 0.26 / 0.05 / 0.40 / -0.23 / 0.24,0.06,1 of 18 (2.30)

Extract of 3 entries:

| CDR-H1 | CDR-H2 | CDR-H3 | log10 Kd, replicates | mean log10 Kd (nM) | signal with controls |
|---|---|---|---|---|---|
| GFDLNEYGIS | VIYADGRRTFYVDSVK | GEQAGTFDV | 0.33 / -0.25 / -0.25 / -0.19 / -0.08 / 0.17 | -0.04 | 0 of 18 |
| GFDLNEYGIS | VIYADGQRTAYADSVK | GKSAGTFDS | -0.06 / -0.15 / -0.39 / -0.38 / -0.52 / 0.33 | -0.19 | 0 of 18 |
| GFDLNEYGIS | VIYADGRRTFYTDSVK | GEVAGTFDE | -0.26 / -0.95 / -1.38 / -1.13 / -0.18 / -0.21 | -0.69 | 0 of 18 |

A sequence measured in both rounds can read differently, since the two assays cover different ranges. Background: pairings of all heavy chain designs with three empty control strains gave a value in 1% of cases (median 2.08, 5th percentile 0.84). Values in that range, when seen in few replicates, are hard to tell from nonspecific mating. Also given: how often the same scFv was detected with the empty control strains, with their mean in brackets. The authors' rule: three or more of the six replicates give a measured affinity, fewer mean a poor binder.